Data published in paper PMC4112151 (Bioorganic & medicinal chemistry, 2014).

By UniProt entry, the sequences of proteins in these tests, tags left out. Where a name states a change or a piece, a line headed by the entry shows the natural chain unless it says otherwise.
UniProt P41145: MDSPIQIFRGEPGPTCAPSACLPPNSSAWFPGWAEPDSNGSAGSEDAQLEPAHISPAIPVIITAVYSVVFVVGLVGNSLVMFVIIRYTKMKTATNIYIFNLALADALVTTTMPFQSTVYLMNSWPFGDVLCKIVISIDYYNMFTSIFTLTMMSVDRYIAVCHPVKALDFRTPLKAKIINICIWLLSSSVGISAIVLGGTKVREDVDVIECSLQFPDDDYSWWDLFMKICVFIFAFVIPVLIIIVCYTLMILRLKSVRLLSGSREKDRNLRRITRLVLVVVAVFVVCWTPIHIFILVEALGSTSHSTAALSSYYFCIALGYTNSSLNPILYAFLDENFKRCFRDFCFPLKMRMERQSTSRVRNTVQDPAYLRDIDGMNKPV

Molecular target: KOPr (Homo sapiens, UniProt P41145)
Experiment: [35S]GTPγS binding, CHO membranes, standard U69593
Assay type: biochemical
Conditions: Ke/nM KOPr, antagonist Ke versus U69593, single agonist concentration

Molecule `Oc1ccc2c3c1O[C@H]1c4[nH]c5ccccc5c4C[C@@]4(O)[C@@H](C2)N(CC2CC2)CC[C@]314` [Naltrindole, naltrindole, reference compound] has a Kd of 4.95 nM.
